Data taken from patent US8937193B2, “Apogossypolone derivatives as anticancer agents” (Sanford-Burnham Medical Research Institute, priority 2009, dated 2015).

Chains of the proteins cited; added tags and fusions are not shown. Lines headed by an entry give the natural chain unless they say otherwise; changes in a name come on top.
UniProt Q16548: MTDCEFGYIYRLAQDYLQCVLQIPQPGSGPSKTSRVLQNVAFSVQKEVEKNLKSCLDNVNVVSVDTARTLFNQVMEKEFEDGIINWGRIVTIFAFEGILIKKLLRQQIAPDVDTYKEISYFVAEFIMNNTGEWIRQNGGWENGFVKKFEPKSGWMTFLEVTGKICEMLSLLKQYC

Target: Bfl-1 (Homo sapiens (Human), UniProt Q16548)
Experiment: Fluorescence polarization competitive binding assay (FPA), Bfl-1
Conditions: displacement of BH3 peptide

In the case of CC1=C(C2=C(C)C(=O)c3c(cc(O)c(O)c3CCc3ccc(C)cc3)C2=O)C(=O)c2cc(O)c(O)c(CCc3ccc(C)cc3)c2C1=O [Compound 6f, 6,6′,7,7′-tetrahydroxy-3,3′-dimethyl-5,5′-bis(4-methylphenethyl)-2,2′-binaphthyl-1,1′,4,4′-tetraone], the IC50 is reported as 14 µM.
